In paper PMC13184988, “Enzymatic Bromination of Native Peptides for Late-Stage Structural Diversification via Suzuki–Miyaura Coupling” (ACS Chemical Biology, 2026):

System: U2OS cells
Test: Transportan localization (cellular uptake) assay, fluorescence imaging
Assay type: cell-based
Details: human U2OS cells, 5 µM, 20 min at 37°C, heparin washes, NucRed nuclear stain, fluorescence microscopy
Protocol: Using this approach, we brominated Trp 2 of transportan and coupled it to naphthalene-1-boronic acid to generate a naphthyl-modified peptide (Nap-transportan, Nap-TN, Figure S37; Table S3). […] To assess whether this derivative could be used to visualize cellular uptake, we incubated human U2OS cells with Nap-TN for 20 min in the presence of a far-red nuclear stain (NucRed; Figure d). […]
control was added in quadruplicate to each well of the 96 well plate using a multichannel pipette.
The cells were incubated with compound in the dark for 10 min at room temperature. After […]
incubation, 500 nM forskolin (final concentration) or PBS control was added to each well.
Immediately upon addition of forskolin, luminescence values were recorded for 2 h using a 400 […]
For each agonist, data were normalized per-well according to the following equation:
% cAMP inhibition = <1 − > Y − Y!"# @A × 100
Where Y is the luminescence value at a given agonist concentration, Ymin is the luminescence […]
value at the highest agonist concentration, and Ymax is the luminescence value for the forskolin […]
only control. For agonists that gave biphasic responses, only the inhibitory portion (Y < Ymax) of […]
the dose–response curve was used for fitting.
The dose-response curve was fit to the following equation: […]
quantification of nuclear transportan signals in Figure 5e. Fluorescence images were background […]

Substance | cellular uptake: intracellular blue fluorescence (DAPI channel imaging)
transportan | No intracellular blue fluorescence
7-naphthalene-L-tryptophan [Nap-Trp] | no detectable uptake
